These are literature values, as cited in US10960008B2, “Methods for treating PTEN deficient epithelial cancers using a combination of anti-PI3KBETA and anti-immune checkpoint agents” (Dana-Farber Cancer Institute, Inc., priority 2016, dated 2021).

Chains of the proteins cited; added tags and fusions are not shown. Lines headed by an entry give the natural chain unless they say otherwise; changes in a name come on top.
UniProt O00329: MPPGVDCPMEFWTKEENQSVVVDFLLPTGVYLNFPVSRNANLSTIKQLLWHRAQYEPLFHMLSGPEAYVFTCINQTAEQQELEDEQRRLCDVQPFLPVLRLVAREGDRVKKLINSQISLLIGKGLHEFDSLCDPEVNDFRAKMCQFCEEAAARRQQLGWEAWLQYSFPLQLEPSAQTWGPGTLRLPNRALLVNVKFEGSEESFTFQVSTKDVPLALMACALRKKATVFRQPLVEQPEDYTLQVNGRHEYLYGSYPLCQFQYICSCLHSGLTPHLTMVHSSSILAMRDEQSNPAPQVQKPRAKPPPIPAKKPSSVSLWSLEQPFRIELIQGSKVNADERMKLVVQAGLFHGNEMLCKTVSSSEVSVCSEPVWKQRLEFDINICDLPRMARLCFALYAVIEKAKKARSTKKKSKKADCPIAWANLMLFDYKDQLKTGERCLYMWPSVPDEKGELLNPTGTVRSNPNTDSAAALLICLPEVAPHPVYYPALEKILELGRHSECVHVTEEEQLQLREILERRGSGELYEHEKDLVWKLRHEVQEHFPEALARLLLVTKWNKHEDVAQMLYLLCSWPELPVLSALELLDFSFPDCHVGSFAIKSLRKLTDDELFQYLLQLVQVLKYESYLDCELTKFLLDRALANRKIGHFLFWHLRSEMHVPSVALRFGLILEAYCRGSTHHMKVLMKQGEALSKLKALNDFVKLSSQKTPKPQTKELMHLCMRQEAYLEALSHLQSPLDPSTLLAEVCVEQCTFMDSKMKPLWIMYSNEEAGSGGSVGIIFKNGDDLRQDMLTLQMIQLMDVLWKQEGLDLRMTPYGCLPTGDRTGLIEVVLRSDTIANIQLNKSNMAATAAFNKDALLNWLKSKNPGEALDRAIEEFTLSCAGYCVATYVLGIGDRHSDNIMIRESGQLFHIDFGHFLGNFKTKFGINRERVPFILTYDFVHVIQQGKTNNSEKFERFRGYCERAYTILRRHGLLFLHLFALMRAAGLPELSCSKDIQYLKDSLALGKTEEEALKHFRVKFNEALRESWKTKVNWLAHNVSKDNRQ

For this series, the target named is PI3K delta (Homo sapiens, UniProt O00329). The following applies: read-out: IC50 PI3K delta; adapted from selleckchem.com; cited from earlier work.

Take `Cc1nc(-c2cn3c(n2)-c2ccc(-c4cnn(C(C)(C)C(N)=O)c4)cc2OCC3)n(C(C)C)n1`: the IC50 is 0.12 nM.
